In brackets after ≈: the same amount, converted by molar mass.

1 compound from paper PMC4775937, “Combination Effects of Antimicrobial Peptides” (Antimicrobial Agents and Chemotherapy, 2016) can be followed below.

The test system of this experiment is Escherichia coli MG1655. Type of experiment: cell-based. The following applies: E. coli MG1655; MH broth, 96-well plates, 2-fold gradient 0.25 to 128 μg/ml; approx. 5 × 10^5 log-phase bacteria per well; 37°C overnight. The protocol:
Escherichia coli MG1655 was grown in Luria-Bertani (LB) broth at 37°C with aeration at 220 rpm in 50-ml tubes. Two hundred microliters of overnight culture was resuspended into 15 ml fresh LB broth, cultured under the same conditions for an additional 2 h, and then used for subsequent assays. Mueller-Hinton (MH) broth was used for the assay of MICs and time-killing curves.
According to a standard protocol ([35]), stock solutions of AMPs were diluted in MH broth and then diluted in 96-well plates with a 2-fold gradient, that is, from 0.25 μg/ml to 128 μg/ml. All the gradients of antibiotics were from 0.02 μg/ml to 50 μg/ml, except that the gradient of ciprofloxacin was from 0.002 μg/ml to 1 μg/ml. Approximately 5 × 10^5 log-phase bacteria were added to each well. A positive control containing MH broth and bacteria and a negative control containing only MH broth were included in each plate, and plates were incubated at 37°C overnight.

`CC[C@H](C)[C@H](NC(=O)CN)C(=O)NCC(=O)N[C@@H](C)C(=O)N[C@H](C(=O)N[C@@H](CC(C)C)C(=O)N[C@@H](CCCCN)C(=O)N[C@H](C(=O)N[C@@H](CC(C)C)C(=O)N[C@H](C(=O)N[C@H](C(=O)NCC(=O)N[C@@H](CC(C)C)C(=O)N1CCC[C@H]1C(=O)N[C@@H](C)C(=O)N[C@@H](CC(C)C)C(=O)N[C@H](C(=O)N[C@@H](CO)C(=O)N[C@@H](Cc1c[nH]c2ccccc12)C(=O)N[C@H](C(=O)N[C@@H](CCCCN)C(=O)N[C@@H](CCCNC(=N)N)C(=O)N[C@@H](CCCCN)C(=O)N[C@@H](CCCNC(=N)N)C(=O)N[C@@H](CCC(N)=O)C(=O)N[C@@H](CCC(N)=O)C(N)=O)[C@@H](C)CC)[C@@H](C)CC)[C@@H](C)O)[C@@H](C)O)C(C)C)C(C)C` [Mel, melittin] registered an MIC of 4 µg/mL (≈ 1.41 µM).
